Measured values published in patent publication US20110008343A1, “Method Of Reducing Tissue Loss In Pancreatic Islet Cell Transplantation” (priority 2007, published 2011).

Legend:
[1] = Cytokine induction by LMW-DS in healthy monkeys; assay type: in vivo
Experimental: Plasma IL-6, TNFα, IL-1β, and CRP were measured using a commercial ELISA kit (Immulite IL-6, Immulite TNFα, Immulite IL-1β, and Immulite High Sensitivity CRP, respectively; Diagnostic Products Corporation, Los Angeles, Calif., USA).
Influence of LMW-DS on cytokine induction was examined using three healthy monkeys. Only a slight increase in the IL-6 levels was seen 24 hours after administration of LMW-DS in two out of three healthy monkeys (maximum 27 μg/L).

[2] = Plasma APTT and LMW-DS concentration in transplanted monkeys; assay type: in vivo, Cynomolgus monkeys (Macaca fascicularis); settings: converted from APTT
Experimental: Blood samples: […] […] Analyses of blood and plasma samples: Activated Partial Thromboplastin Time (APTT) measurements were performed as previously described (Johansson et al., (2006) Am J. Transplant. 6 (2): 305).

[3] = Blood cell counts, liver and renal function in monkeys transplanted with porcine islets; assay type: in vivo, Cynomolgus monkeys (Macaca fascicularis)
APIs = settings: 100, 1000 or 2500 mg/L LMW-DS, APIs from three pancreata
[4] = 24 hours after islet transplantation
[5] = transplanted monkeys, throughout the experiments

In the case of “Low molecular weight dextran sulfate [LMW-DS]”, the IL-6 levels ([1]; 24 hours after LMW-DS, slight increase in two out of three healthy monkeys, maximum) is reported as at most 27 µg/L, the “plasma CRP” value ([1]; three healthy monkeys) is reported as “did not trigger an increase” and the “plasma IL-1β” value ([1]; three healthy monkeys) is reported as “did not trigger an increase”. The “plasma TNFα” value ([1]; three healthy monkeys) was “did not trigger an increase”, the “plasma concentration of LMW-DS” value ([2]; monkey M-5, 24 hours) was 30000 ng/mL and the “plasma concentration of LMW-DS” value ([2]; monkey M-7, 24 hours) was 15000 ng/mL. The “plasma concentration of LMW-DS” value ([2]; monkey M-9, 24 hours) was 35000 ng/mL, the ALT [3, 4] was 207.7±68.7 and the AST [3, 4] was 434.7±126.4. The “bleedings or other adverse reactions” value ([3]; transplanted monkeys) was “No bleedings or other adverse reactions”, the creatinine levels [3, 5] was “within normal ranges” and the platelet count [3, 5] was “within normal ranges”. The “effect on insulin release of APIs” value (APIs) was “no adverse effect”.
